The target in this test is Neuropeptide Y receptor type 2 (Homo sapiens, UniProt P49146). As to the kind of experiment: Binding affinity towards the NPY Y2 receptor.

Chains of the proteins cited; added tags and fusions are not shown.
UniProt P49146, whole entry: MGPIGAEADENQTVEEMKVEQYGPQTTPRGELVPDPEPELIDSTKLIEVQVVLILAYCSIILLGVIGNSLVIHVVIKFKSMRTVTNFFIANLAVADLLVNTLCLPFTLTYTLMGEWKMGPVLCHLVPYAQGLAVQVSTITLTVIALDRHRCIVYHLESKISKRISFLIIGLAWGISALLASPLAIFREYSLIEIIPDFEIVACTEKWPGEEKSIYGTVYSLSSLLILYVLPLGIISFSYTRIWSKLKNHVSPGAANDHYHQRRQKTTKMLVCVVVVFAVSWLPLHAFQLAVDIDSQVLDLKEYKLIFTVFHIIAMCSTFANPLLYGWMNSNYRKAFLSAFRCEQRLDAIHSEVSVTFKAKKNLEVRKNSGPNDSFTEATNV

Some compounds may have been tested in ways that are not shown here.

Consider `CC(=O)N1CCc2ccc(N(C(=O)/C=C/C3N=CC=N3)C3CCN(Cc4ccccc4)CC3)cc21`, for which the IC50 worked out at 17 µM.

The compound `CC(=O)N1CCc2ccc(N(C(=O)C/C=C/c3ccccc3)C3CCN(Cc4ccccc4)CC3)cc21` displayed an IC50 of 11 µM.

These data come from ChEMBL document CHEMBL1147599 (Bioorg Med Chem Lett, 2004).
